Apparent affinities of Ab-91 variants for a coronavirus HR2 peptide

Target peptide (SARS-CoV-2 spike, HR2 region): PDVDLGDISGINAS

Each scFv is VL, the linker GGGGSGGGGSGGGGS, VH, as in the parent Ab-91, and differs from it in the CDRs of the heavy chain only.
VL: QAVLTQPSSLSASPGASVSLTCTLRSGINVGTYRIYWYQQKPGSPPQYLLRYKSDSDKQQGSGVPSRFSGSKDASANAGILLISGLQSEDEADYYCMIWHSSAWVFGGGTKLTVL
VH: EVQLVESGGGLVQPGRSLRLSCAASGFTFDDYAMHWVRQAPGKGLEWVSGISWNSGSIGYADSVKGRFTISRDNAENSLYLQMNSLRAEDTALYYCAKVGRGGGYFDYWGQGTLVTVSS

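The parent was found by panning a naive human phage display library on the peptide. Library AAYL51 holds single substitutions and randomly drawn double and triple substitutions in the CDRs. The assay is AlphaSeq: two haploid yeast populations carry antibody and antigen on their surface. Pairs that bind mate more often; barcode pairs of the diploids are counted by sequencing. A regression on co-assayed BCL2-family reference pairs converts the normalised counts of each replicate to an apparent Kd. Each pool was mated in three replicate cultures.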

The parent's heavy chain CDRs are GFTFDDYAMH, GISWNSGSIGYADSVK, VGRGGGYFDY; each variant's own CDRs replace them letter for letter. All variants listed here change T28 of the VH, counted from its first residue. The Kd shown is the geometric mean over detected replicates; a lower Kd is a better binder. An entry "nd" has no value in the source: the pair was not observed among the diploids in any replicate. This suggests poor binding but is not conclusive. In this assay the parent's reference entry averaged 72 nM; its copy inside this library read 7.5 nM. As a blank, each scFv also met three strains without target: over library AAYL51, 21% of these pairings were detected, typically at 34 µM and seldom below 1.8 µM.

| CDR-H1 | CDR-H2 | CDR-H3 | Kd | detected |
|---|---|---|---|---|
| GFWFDDYAMH | GQSWNSGSIGYADSVK | VGRGGIYFDY | nd | 0/3 |
| GFHFDQYAMH | GISWNSGSIGYADSVK | VGRDGGYFDY | 26 µM | 2/3 |
| GFAFDDYAMH | GESWNSGSIGYADSVQ | VGRGGGYFDY | 28 µM | 1/3 |
| GFGFDDYAMH | GISWNSGSIGYAKSDK | VGRGGGYFDY | 24 µM | 1/3 |
| GFCFDDYAMH | SISWNSGSIYYADSVK | VGRGGGYFDY | 48 µM | 3/3 |
| GFWFDDYAMH | GISWNSGSIGYADSWK | VGRGGYYFDY | 17 µM | 1/3 |
| GFHFGDYAMH | GISWNSGSIGYADSVK | KGRGGGYFDY | 44 µM | 1/3 |
| GFKFDDYAMH | GISWNSGMIGYADSAK | VGRGGGYFDY | nd | 0/3 |
| GFFFDDYAMH | GISWSSGSIGTADSVK | VGRGGGYFDY | 2.8 µM | 1/3 |
| GFIFEDYALH | GISWNSGSIGYADSVK | VGRGGGYFDY | 1.3 µM | 3/3 |
| GFGFDDVAMH | GISWNSGSIGYADSVK | VGRGGGYFDY | nd | 0/3 |
| GFYFDDYAMH | GLSTNSGSIGYADSVK | VGRGGGYFDY | nd | 0/3 |
| GFCFQDYAMH | GISWNSQSIGYADSVK | VGRGGGYFDY | nd | 0/3 |
| GFKFDDYAMH | GISWNSGSIGYADSVK | VVRGGGYFDW | nd | 0/3 |
| GMLFDDYAMH | GISWNSGSIGIADSVK | VGRGGGYFDY | nd | 0/3 |
| GFLFDDYAMH | GISWYSGSIGYADSVK | VGRGGGYFDM | 12 µM | 1/3 |
| GFRFDDYAMG | GISWNSGSIGYWDSVK | VGRGGGYFDY | nd | 0/3 |
| GFLFDDYAMH | YISWNSGCIGYADSVK | VGRGGGYFDY | nd | 0/3 |
| GFKGDDYAMH | GISWVSGSIGYADSVK | VGRGGGYFDY | 72 µM | 2/3 |
| GFIFDDYAMH | GISWNSGSIGYADFVK | VGRIGGYFDY | 470 nM | 3/3 |
| GFEFDDYAMG | GISWNSGSIGYADCVK | VGRGGGYFDY | 98 µM | 1/3 |
| GFIFDDYAMH | GISWNSGSIGYAPSVK | VGRGIGYFDY | 240 µM | 3/3 |
| GFEFTDDAMH | GISWNSGSIGYADSVK | VGRGGGYFDY | 100 µM | 2/3 |
| GMKFDDYAMH | GISWNSGNIGYADSVK | VGRGGGYFDY | 24 µM | 1/3 |
| GFFFDDYAMH | GISYNSGSIGYADHVK | VGRGGGYFDY | nd | 0/3 |
| GFCFDDYAMH | GISWNEGSIGYADWVK | VGRGGGYFDY | 2.5 µM | 3/3 |
| GFKFSDYAMH | GISWNSLSIGYADSVK | VGRGGGYFDY | 60 nM | 3/3 |
| GFSFDDYAMH | GISWMQGSIGYADSVK | VGRGGGYFDY | 150 nM | 2/3 |
| GFNFDDYAMH | GISWNRGSIGYADGVK | VGRGGGYFDY | 2.1 µM | 3/3 |
| GFDFDDYAMH | GISWNSGSIGNADSVK | VGIGGGYFDY | nd | 0/3 |
| GFLFDDYAMH | GISWNSGSIGYADSHV | VGRGGGYFDY | 21 µM | 1/3 |
| GFPFDDYAMH | GISWNSRSIGYADSVK | VGPGGGYFDY | 630 nM | 3/3 |
| GFCFDDYAMH | QISWNSGSFGYADSVK | VGRGGGYFDY | nd | 0/3 |
| GFPFKDYAMH | GISWNSGSISYADSVK | VGRGGGYFDY | 29 µM | 1/3 |
| GFFFDDYAMH | GISWNSGSIGYADSVK | VGRGGCYFFY | 12 nM | 3/3 |
| GSAFDDYAMH | GISWNSLSIGYADSVK | VGRGGGYFDY | 50 µM | 3/3 |
| GFHFYDYAMH | GISWNSGSIGYADSVK | VGRGGGYFDD | 83 nM | 3/3 |
| GFVFDDYAMH | GISWNQGSIGYADSVK | VSRGGGYFDY | nd | 0/3 |
| GFQFDDYAMH | GISWNMGSIGYADSVK | VGRGGGVFDY | 1.5 µM | 3/3 |
| GFQFDDYAMH | GISWNSGIIGYADSVF | VGRGGGYFDY | nd | 0/3 |
| GFCFDDYNMH | GISWNSGSIGYAGSVK | VGRGGGYFDY | nd | 0/3 |
| GFADDDYAMH | GISWNSGSIGYADSVK | VGRGGGYFDY | 190 µM | 3/3 |
| GGHFDDYAMH | GISWNSGSIGYADSVK | VARGGGYFDY | 81 µM | 3/3 |
| TFKFDDYAMH | GISWRSGSIGYADSVK | VGRGGGYFDY | 200 µM | 2/3 |
| GFDFDDYAMH | GISWNSGSIGYADSVK | VGRGGGYKDY | 15 µM | 3/3 |
| GFKFLDYAMH | GISWNSGSIGYADSVR | VGRGGGYFDY | 2.1 µM | 2/3 |
| GFYFDDYAMH | GISWNSGSIGYADSVQ | VWRGGGYFDY | 58 µM | 2/3 |
| GFYFDDGAMP | GISWNSGSIGYADSVK | VGRGGGYFDY | nd | 0/3 |
| GFVFDDYAMH | GISWNSGSIGYADSVK | VGRGGGYFDY | 23 nM | 3/3 |
| GFHFDDYTMH | GISWNSGSIGYAPSVK | VGRGGGYFDY | 84 µM | 2/3 |
| GFQFTDYAMH | GISWNSGSIGYADSVK | VLRGGGYFDY | nd | 0/3 |
| EFYFDDYAMH | GESWNSGSIGYADSVK | VGRGGGYFDY | 250 µM | 1/3 |
| GFVFDDYAMH | GIVWNSGSIGYADSVK | VGRGGGYFDY | nd | 0/3 |
| GFYFDDYAMS | GISWNSGSIGYADFVK | VGRGGGYFDY | nd | 0/3 |
| GFAFDDYAMH | GLVWNSGSIGYADSVK | VGRGGGYFDY | nd | 0/3 |
| GFGFDDYAMH | GISWNSGSIGYADSGK | VGRGGGYRDY | nd | 0/3 |
| GFYYDDYAMH | GISWNSGSIGYADYVK | VGRGGGYFDY | nd | 0/3 |
| CFIFDDYAMH | GISWNSGSIGYADSVK | VGRGGGYRDY | nd | 0/3 |
| GFGFDDYAMH | GISWNSGSIGYADSVK | VGRGGGYFDY | 160 µM | 2/3 |
| GFMFDDYAMH | GISWNSHSIGYADSVK | VGRGGGYFDY | 1.1 µM | 3/3 |
| GFSFQDYAMH | FISWNSGSIGYADSVK | VGRGGGYFDY | 11 µM | 2/3 |
| GFRCDDNAMH | GISWNSGSIGYADSVK | VGRGGGYFDY | 35 µM | 1/3 |
| GFFFDDYAMH | GISWNSGSIGYADSIK | VGRGGGYFVY | 510 nM | 3/3 |
| GFNFDDYNMH | GISWNSGSIGYADSVK | VGRGGGYFDY | 190 µM | 2/3 |

Repeated from above, the 5 best binders with a signal in all replicates:

| CDR-H1 | CDR-H2 | CDR-H3 | Kd | detected |
|---|---|---|---|---|
| GFFFDDYAMH | GISWNSGSIGYADSVK | VGRGGCYFFY | 12 nM | 3/3 |
| GFVFDDYAMH | GISWNSGSIGYADSVK | VGRGGGYFDY | 23 nM | 3/3 |
| GFKFSDYAMH | GISWNSLSIGYADSVK | VGRGGGYFDY | 60 nM | 3/3 |
| GFHFYDYAMH | GISWNSGSIGYADSVK | VGRGGGYFDD | 83 nM | 3/3 |
| GFIFDDYAMH | GISWNSGSIGYADFVK | VGRIGGYFDY | 470 nM | 3/3 |

The measurements come from Engelhart et al. 2022 (doi:10.1038/s41597-022-01779-4) through the FLAb antibody collection.